Data on one compound can be found in PMC1971568, “Disposition of the prodrug 4-(bis (2-chloroethyl) amino) benzoyl-L-glutamic acid and its active parent drug in mice” (British Journal of Cancer, 1990).

Series [1] can be described thus: in vivo. Particulars: Nu/Nu, mouse, ip, 41 umol/kg.
For series [2] the following is noted: Nu/Nu, mouse, in vivo, ip, 41 umol/kg.
A further series is described as follows: physchem. The note with it: buffer, pH 7.4.
Series [3] in a line: in vitro. The note with it: mouse, plasma.
Series [4] is described as follows: in vitro. The note with it: human, plasma.
Series [5] in a line: in vivo. The note with it: Nu/Nu, mouse, iv.

With `O=C(O)CC[C@H](NC(=O)c1ccc(N(CCCl)CCCl)cc1)C(=O)O` [prodrug, 4-(bis (2-chloroethyl)amino) benzoyl-L-glutamic acid], the half-life in “in vivo [1]” (t1/2 alpha, initial half life) is 7.2 min; in the series “in vivo [1]” (t1/2 beta, final half life), 42 min; in the series “physchem”, 1560 min; in “in vivo [5]” (t1/2 alpha, initial half life) it was 22.2 min; in the series “in vivo [5]” (t1/2 beta, final half life) it was 177 min. Further, the “t1/2 beta, final half life” value in series [2] was found to be 45 min. In addition, the results for the free fraction (fraction unbound) in the series “in vitro [3]” and in “in vitro [4]” were 0.06 and 0.08, respectively. For the same compound, the Vd in “in vivo [5]” was determined as 0.16 L. Besides, the clearance in “in vivo [5]” was 0.62 mL/min.

Usually half-life stands for how long it takes for the measured level to halve. Broadly, the fraction unbound is free concentration divided by total concentration. A lower fraction unbound goes with extensive binding. For orientation: Vd means a proportionality between amount in the body and measured concentration, not a real space. A lower Vd goes with little distribution into tissue. What is called clearance is a measure of how efficiently the substance is removed, as volume per time. Low values mean a low capacity for elimination, high ones a high capacity for elimination.
